SMILES strings stand for the structures. Only a part is listed here, and it is no random draw. Calls of active or inactive are those of the source.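 Rule for the calls: active = inhibition above the screen-wide average of all tested compounds plus 3 SD (cut at about 25% in these data); inactive = the rest.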

Amino acid sequences for entries named in this document (tags omitted).
UniProt Q15102, whole entry: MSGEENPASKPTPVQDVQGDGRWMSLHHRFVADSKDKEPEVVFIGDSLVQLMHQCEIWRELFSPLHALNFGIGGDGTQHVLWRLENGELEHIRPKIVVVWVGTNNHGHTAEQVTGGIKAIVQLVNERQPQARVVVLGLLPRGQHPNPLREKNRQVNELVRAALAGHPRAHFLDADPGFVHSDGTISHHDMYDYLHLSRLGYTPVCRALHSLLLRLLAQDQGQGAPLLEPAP

The target of this assay is Platelet-activating factor acetylhydrolase IB subunit alpha1 (Homo sapiens) (UniProt Q15102). Description: inhibition of PAF acetylhydrolase 1B subunit 3 – biochemical, fluorescence polarization, human, primary screen (AID 492972).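 Note: 0% = enzyme with DMSO only and 100% = wells lacking PAFAH1B3 protein.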 Particulars: recombinant PAFAH1B3, FP-rhodamine probe, at 3.39 µM, stronger effect = higher value. Background: Polarisation of emitted light reports the rotation of a fluorescent probe.
The inhibition is the relative decrease from the control value, in per cent. Take `NC(=O)Nc1ccc([As](=O)(O)O)cc1`: the inhibition was inactive: -3.21%.

The values above are taken from PubChem BioAssay AID492972 (The Scripps Research Institute Molecular Screening Center, 2010).
